Laboratory results: publication PMC4394464, “Identification and Pharmacokinetics of Multiple Potential Bioactive Constituents after Oral Administration of Radix Astragali on Cyclophosphamide-Induced Immunosuppression in Balb/c Mice” (International Journal of Molecular Sciences, 2015)

Assay: Profiling of absorbed constituents and metabolites in mice plasma after oral administration of RA (UFLC-DAD-Q-TOF-MS/MS)
Settings: oral RA extract 6 g/kg BW; cyclophosphamide-induced immunosuppressed Balb/c mice; plasma sampled 0.25-36 h; '-' = not detected

Question: For Glucuronidated rhamnocitrin [Peak M4], which “Source: Dosed Plasma (time points at which the compound was detected)” value is on record?
Answer: 0.25 to 8 h
